Results as given in PubChem BioAssay (NCI).
Some structures show a salt or complex split into parts, the way the source records it.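 Following 48 hours of exposure in 96-well plates, responses at five concentrations were used to interpolate endpoints linearly. The concentration for 50% growth inhibition is given as GI50. The concentration for full growth arrest is given as TGI.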

Test system: BT-549 breast
Assay: inhibition of tumour cell growth, NCI panel, 48 h

Question: What does the source list for [Au+].[Au+].c1ccc([PH+](c2ccccc2)c2ccccc2)cc1.c1ccc([PH+](c2ccccc2)c2ccccc2)cc1.n1n[n-]c(-c2nnn[n-]2)n1?
Answer: GI50: 12.1 µM; TGI: 24.5 µM
